# Assay results published in patent US20260217701A1, “SELECTIVE BET INHIBITORS AND USES THEREOF” (Tay Therapeutics Limited, priority 2022, published 2026).
# System: imiquimod-induced psoriasis
# Experiment: Imiquimod-induced psoriasis model
# Format: in vivo, mice
# Details: after third and fourth treatment
# Source text: Imiquimod-induced psoriasis is a model of psoriasis in mice that induces psoriasis-like dermatitis. The pathology closes resembles human plaque-type psoriasis and is a valuable tool for testing new therapies against psoriasis. […] Compound A was formulated in a 5% DMSO/40% PEG-400/55% (0.9% NaCl w/v water) solution (Table 2F). Experimental groups for the study are outlined in Table 4. Prior to study initiation, the backs of all animals in the study were depilated to allow for induction of psoriasis and monitoring of disease progression. […]
# Body weights were recorded three times a week from Day 1 to Day 8, and daily from Day 8 until the study end at Day 15. At termination on D15 the spleen weight ratio was determined. Disease severity was assessed using the psoriasis area severity index (PASI) daily from Day 8 until study completion on Day 15. The PASI score was calculated based on three parameters (presence of erythema, induration of the skin, and peeling of the skin at the area of induction) on a scale of 0 to 4 (0=no more or absence, 1=low, 2=moderate, 3=high, 4=severe). The PASI score for each animal was calculated as the sum of the score of each parameter measured. The score of the use of enrichment (SUE) was also assessed daily from Day 8 to Day 15. […]
substance,measurement,value
Deucravacitinib [reference compound],mortality during the study,two animals died
